Laboratory results reported in article doi:10.1101/2025.03.31.646177v2.

Legend:
[1] = target: T1, HDAC6-HiBiT (endogenously tagged HDAC6 in HeLa HDAC6-HiBiT LgBiT cells) (Homo sapiens, UniProt Q9UBN7); test: NanoBRET competition with tracer […]; assay type: cell-based; conditions: whole cells, […] °C, […] h, […] tracer […]; unreliable (autofluorescence, upper estimate)
[2] = target: HDAC6 (human recombinant) (Homo sapiens, UniProt Q9UBN7); test: fluorogenic HDAC assay; assay type: biochemical; conditions: pH […] °C, no preincubation
[3] = target: T1, HDAC6-HiBiT (endogenously tagged HDAC6 in HeLa HDAC6-HiBiT LgBiT cells); test: NanoBRET competition with tracer […], Cheng-Prusoff; assay type: cell-based; conditions: whole cells, […] °C, […] h, […] tracer […]; unreliable (autofluorescence, upper estimate)

O=C1CCC(N2C(=O)c3cccc(NCCOCCOCCn4cc(CCCCN(Cc5ccc(C(=O)NO)cc5)C(=O)Nc5ccccc5)nn4)c3C2=O)C(=O)N1 (stereo not drawn)
IC50 [1]: 0.59 ± 0.21 µM | IC50 [2]: 0.026 µM | Ki [3]: 0.083 ± 0.030 µM
